# Measured affinities in a library of Ab-14 heavy chain variants

All variants were tested on one target, the spike HR2 peptide PDVDLGDISGINAS (SARS-CoV-2).

Parent: Ab-14, a human scFv built as VH, the linker GGGGSGGGGSGGGGS, VL. Only the CDRs of the heavy chain vary.
VH: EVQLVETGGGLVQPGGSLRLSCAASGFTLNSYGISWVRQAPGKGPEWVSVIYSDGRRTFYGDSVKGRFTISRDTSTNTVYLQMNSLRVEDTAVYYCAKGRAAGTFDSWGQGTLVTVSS
VL: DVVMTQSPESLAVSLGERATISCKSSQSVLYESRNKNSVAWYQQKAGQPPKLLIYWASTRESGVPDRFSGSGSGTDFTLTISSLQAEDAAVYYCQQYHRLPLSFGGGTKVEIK

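The starting antibody came from a phage panning campaign against this peptide. The variants were designed computationally from a first round of random CDR variants and then made and measured. Group labels follow the data file (Ctrl: baseline library sampled from a position-specific scoring matrix, with some repeated check sequences; Rand: our label for a block that the file lists under HC and that is probably the random mutants of the ten best first-round binders; En: ensemble of fine-tuned language models; GP: Gaussian process model; GPLM: also part of the Gaussian process libraries; HC: hill climbing; Gen: genetic algorithm; Gibbs: Gibbs sampling; a sequence that several methods proposed may carry one label only). The assay is AlphaSeq: two haploid yeast populations carry antibody and antigen on their surface. After mating in shaken culture at 30 °C for 16 h, diploids were selected and their barcode pairs sequenced. A regression on co-assayed BCL2-family reference pairs converts the normalised counts of each replicate to an apparent Kd. Mating was done six times.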

Variants are written as CDR1, CDR2 and CDR3 of the heavy chain (limits as in the source). Parent: GFTLNSYGIS, VIYSDGRRTFYGDSVK, GRAAGTFDS.
Each Kd is an estimate from the mating assay, the geometric mean of the replicates in which the pair was seen; lower is stronger.
"no signal" means that the variant was in the library but no mating with the target was seen in any replicate; the authors take this as a sign of poor binding, and no number exists.
Values of this round are not directly comparable with the first-round values of the same sequences.
Of ten entries with the parent sequence, four were seen in most replicates (averages 2.2 nM to 240 nM), three in one and three in none, so single entries are noisy.
The authors averaged sequences with at least three values out of six and counted those with two or fewer as poor binders.
Three control strains display no target. For all heavy chain designs, 1% of the pairings with them gave a signal, with a median of 120 nM and one signal in twenty below 7.0 nM, so weak values seen in few replicates may be background.

CDR-H1	CDR-H2	CDR-H3	group	Kd	seen in
GFTCNSYGIS	VIYADGRRTFYNDSVK	GRAAGTNKS	Rand	no signal	0 of 6
GFDLDEYGIS	VIYADGRRTAYADSVK	GETAGTFDV	En_Gen	1.4 nM	6 of 6
GFSLNMYGIS	VIYSDGRRTFYGDSFK	GRAAGTFDS	Ctrl	170 nM	2 of 6
GFTLNEYGIS	VIYSDGRRTQYGDSVK	GRAAGTFVS	GP_HC	110 nM	1 of 6
GFTLDEYGIS	VIYADGRRTFYQDSVK	GNVAGTFDI	En_HC	470 pM	6 of 6
GFDLEDYGIS	VIYADGRRTAYIDSVK	GENAGTFDV	En_HC	300 pM	6 of 6
GFGLNSYGIS	VIYSDGRRTFYIDSVK	GQAAGTFDS	GPLM_Gen	120 nM	5 of 6
GNNLDEYGIS	VIYADGQRSAYAQDVK	GKTGDNAFV	En_Gibbs	no signal	0 of 6
GFTLNNYGIS	VIYSDGRRTFYGDFVK	GRAAGTFDS	Ctrl	24 nM	1 of 6
GFDLTEYGIS	VIYADGRRTAYQDAVK	GLNGGMLVV	En_Gibbs	no signal	0 of 6
GFYLNSYGIS	VIYSDGRRTFYDDSVK	GQLAGTFDS	GPLM_HC	17 nM	2 of 6
GFSLNSYGIS	VIYADGRRTFYADSVK	GQAAGTFDS	GPLM_Gen	250 pM	6 of 6
GFDLNEYGIS	VIYADGVRTAYADNVK	GEVAGTFDM	En_Gen	250 pM	6 of 6
GETLDSYGIS	VIYSDGLRTFYEDSVK	GRAAGTFDS	Ctrl	no signal	0 of 6
GFDVLEYGIS	VIYADGRRAAYAKDVK	GMNGDFIVD	En_Gibbs	no signal	0 of 6
GFSLNSYGIS	VIYSDGRRTFYTDSVK	GRVAGTFDS	GPLM_Gen	1.6 nM	6 of 6
GFVLNSYGIS	VIYSDGRRTFYKDSVK	GQTAGTFDT	GP_Gibbs	100 nM	6 of 6
GFTLNDYGIS	VIYSDGRRTFYDDSVK	GRAAGTFSS	GP_HC	no signal	0 of 6
GFTLNSYGIS	VIYSDGLRTSYGDSVK	GSAAGTFDS	Ctrl	45 nM	3 of 6
GFTRNSYGIS	VIYSDGRRTFYGDSVK	GRAAGTFDS	Ctrl	no signal	0 of 6
GFTLNSYGIS	VIYSDGRRCFYDDSVK	GQLAGTFDS	GPLM_HC	17 nM	4 of 6
GFDLNEYGIS	VIYADGRRTFYIDSVK	GEQAGTFDM	En_HC	550 pM	6 of 6
GFELNSYGIS	VIYSDGRRTFYTDSVK	GRLAGTFDS	GP_Gen	8.7 nM	5 of 6

Continued, with the values leading:

Kd	seen in	CDR-H1	CDR-H2	CDR-H3	group
8.3 nM	1 of 6	GKTLNEYGIS	VIYSDGRRTFYTDSVK	GRFAGTFDS	GPLM_HC
1.1 nM	6 of 6	GFDLNEYGIS	VIYADGMRTAYVDNVK	GNVAGTFDV	En_Gen
6.3 nM	4 of 6	GFSLNQYGIS	VIYSDGRRTFYGDSVK	GRAALTFDS	GP_HC
2.2 nM	6 of 6	GFDLNSYGIS	VIYSDGRRTFYGDKVK	GQEAGTFDS	GP_Gibbs
no signal	0 of 6	GFSLNSYGIS	VIYSDGRRTFYRDSVK	GRAAGTFDS	GP_HC
2.3 nM	6 of 6	GFSLNSYGIS	VIYSDGRRTFYGDSVK	GRLAGTFDF	GPLM_Gibbs
no signal	0 of 6	GFTLNSYGIS	VIYSDGYRTEYGDSVK	QRAIGTGDS	Ctrl
370 pM	6 of 6	GFDLNEYGIS	VIYADGMRTAYADNVK	GGNAGTFDV	En_Gen
2.7 nM	6 of 6	GFTLNSYGIS	VIYADGRRTFYGDSVK	GKAAGTFDM	GPLM_Gen
5.6 nM	6 of 6	GFTLNSYGIS	VIYSDGMRTFYSDDVK	GRTAGTFDS	GP_Gibbs
300 pM	6 of 6	GFNLNEYGIS	VIYADGVRTFYADSVK	GQVAGTFDV	En_HC
130 pM	5 of 6	GFDLDEYGIS	VIYADGMRTVYADSVK	GENAGTFDT	En_Gen
no signal	0 of 6	GFTLQSYGIS	VIYSDGRRTFYHDSVK	GEAAGKFFS	Ctrl
460 nM	1 of 6	GFDLNEYGIS	VIYADGVQRFYTDDVK	GGNQGTFVL	En_Gibbs
no signal	0 of 6	GFDLNSYGIS	VHYSDGRVTRYGDSVK	GRAAGWFNS	Rand
no signal	0 of 6	GFTLNSYGIS	VIYSDGRRTFYGDSVK	GRAACAFDS	Ctrl
no signal	0 of 6	GFTLNEYGIS	VIYSDGRRTFYMDSVK	GRAAVTFDQ	GPLM_HC
4.2 nM	6 of 6	GFDLNEYGIS	VIYADGQRTFYKDSVK	GEAAGTFDQ	En_HC
170 pM	6 of 6	GFDLNEYGIS	VIYADGMRTAYSDSVK	GNNAGTFDL	En_Gen
190 pM	6 of 6	GFDLDEYGIS	VIYADGMRTFYADSVK	GNIAGTFDA	En_HC
78 nM	6 of 6	GFNLNSYGIS	VIYSDGRRTFYGDRVK	GKQAGTFDS	GP_Gibbs
7.9 nM	6 of 6	GFDLNSYGIS	VIYSDGRRTFYGDSVK	GRTAGTFDS	GPLM_Gen
2.8 nM	6 of 6	GFQLNSYGIS	VIYSDGRRTFYADSVK	GQAAGTFDS	GPLM_Gen

The first 5 variants above that were never detected:

| CDR-H1 | CDR-H2 | CDR-H3 | group | Kd | seen in |
|---|---|---|---|---|---|
| GFTCNSYGIS | VIYADGRRTFYNDSVK | GRAAGTNKS | Rand | no signal | 0 of 6 |
| GNNLDEYGIS | VIYADGQRSAYAQDVK | GKTGDNAFV | En_Gibbs | no signal | 0 of 6 |
| GFDLTEYGIS | VIYADGRRTAYQDAVK | GLNGGMLVV | En_Gibbs | no signal | 0 of 6 |
| GETLDSYGIS | VIYSDGLRTFYEDSVK | GRAAGTFDS | Ctrl | no signal | 0 of 6 |
| GFDVLEYGIS | VIYADGRRAAYAKDVK | GMNGDFIVD | En_Gibbs | no signal | 0 of 6 |

Source: Li et al. 2023 (doi:10.1038/s41467-023-39022-2), MIT Lincoln Laboratory and A-Alpha Bio; data file from the FLAb repository.